# Biological target: T1, ERbeta receptor (PanVera) (Homo sapiens, UniProt Q92731)
# Chains of the proteins cited; added tags and fusions are not shown.
# UniProt Q92731, whole entry: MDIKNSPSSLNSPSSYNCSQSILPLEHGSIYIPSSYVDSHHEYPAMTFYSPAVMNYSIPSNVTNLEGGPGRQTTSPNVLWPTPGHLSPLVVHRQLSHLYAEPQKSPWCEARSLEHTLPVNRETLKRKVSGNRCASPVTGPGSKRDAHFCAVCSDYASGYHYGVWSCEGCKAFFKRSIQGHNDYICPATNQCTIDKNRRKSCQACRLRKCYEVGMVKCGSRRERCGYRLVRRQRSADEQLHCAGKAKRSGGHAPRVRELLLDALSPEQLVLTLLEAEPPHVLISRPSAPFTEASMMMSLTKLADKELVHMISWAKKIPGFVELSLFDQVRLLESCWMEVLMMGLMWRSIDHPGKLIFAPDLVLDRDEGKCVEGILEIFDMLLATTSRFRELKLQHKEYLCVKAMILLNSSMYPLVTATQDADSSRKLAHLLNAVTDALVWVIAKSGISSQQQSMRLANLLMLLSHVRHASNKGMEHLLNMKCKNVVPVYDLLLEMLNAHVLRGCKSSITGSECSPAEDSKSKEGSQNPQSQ
# T1 construct: purchased PanVera
# Assay: ER competition binding assay (3H-Estradiol), ERbeta
# Details: IC50 converted to Ki by Cheng-Prusoff; 3H-Estradiol competition; A = class at 10 microMolar; read-out: Ki (ERβ)
# Method: Competition binding assay is run in a buffer containing 50 mM Hepes, pH 7.5, 1.5 mM EDTA, 150 mM NaCl, 10% glycerol, 1 mg/ml ovalbumin and 5 mM DTT, using 0.025 μCi per well ^3H-Estradiol(NEN #NET517 at 118 Ci/mmol, 1 mCi/ml), 10 ng/well ERAlpha or ERbeta receptor (PanVera). Competing compounds are added at 10 different concentrations. Non-specific binding is determined in the presence of 1 μM of 17-B Estradiol. The binding reaction (140 μl) is incubated for 4 hours at room temperature, then 70 μl of cold DCC buffer is added to each reaction (DCC buffer contains per 50 ml of assay buffer, 0.75 g of charcoal (Sigma) and 0.25 g of dextran (Pharmacia)). Plates are mixed 8 minutes on an orbital shaker at 4° C. Plates are then centrifuged at 3,000 rpm at 4° C. for 10 minutes. An aliquot of 120 μl of the-mix is transferred to another 96-well, white flat bottom plate (Costar) and 175 μl of Wallac Optiphase “Hisafe 3” scintillation fluid is added to each well. Plates are sealed and shaken vigorously on an orbital shaker. After an incubation of 2.5 hrs, read plates in a Wallac Microbeta counter. […] The Kd for ^3H-Estradiol is determined by saturation binding to ER alpha and ER beta receptors. The IC50 values for compounds are converted to Ki using Cheng-Prusoff equation and the Kd determined by saturation binding assay.
structure (smiles),measurement,value
O=C(c1ccc(OCCN2CCCCC2)cc1)N1c2ccc(O)cc2CCC1c1ccccc1 (stereo not shown) [Example 4],Ki,0.376 µM

# Reference: patent publication US7056931B2, “2-substituted 1,2,3,4-tetrahydroquinolines and derivatives thereof, compositions and methods” (Eli Lilly and Company, priority 2001, dated 2006)
